The record followed here is US12630600B2 (MEDIMMUNE LIMITED, priority 2022, dated 2026).

Sequences of proteins named here, by UniProt entry; tags and fusion partners are left off. Residues count along the entry.
UniProt P43220, 24-463: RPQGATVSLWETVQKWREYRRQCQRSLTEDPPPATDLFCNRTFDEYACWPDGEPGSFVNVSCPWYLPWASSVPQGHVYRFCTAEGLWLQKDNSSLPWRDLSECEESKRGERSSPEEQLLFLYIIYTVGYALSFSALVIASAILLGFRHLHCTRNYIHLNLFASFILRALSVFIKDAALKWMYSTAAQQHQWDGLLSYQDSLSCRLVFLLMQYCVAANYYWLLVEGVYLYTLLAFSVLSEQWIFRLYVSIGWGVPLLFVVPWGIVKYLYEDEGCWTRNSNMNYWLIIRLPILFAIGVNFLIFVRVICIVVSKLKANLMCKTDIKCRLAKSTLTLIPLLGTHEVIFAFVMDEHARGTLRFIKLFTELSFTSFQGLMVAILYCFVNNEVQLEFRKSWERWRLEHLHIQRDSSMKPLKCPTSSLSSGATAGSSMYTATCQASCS

The target of this experiment is T1, human GLP-1 receptor (hGLP-1R) (Homo sapiens, UniProt P43220).
T1 construct: expressed in transfected cells; host or cells: CHO
The experiment can be described thus: cAMP production (HTRF) in CHO cells expressing human GLP-1 receptor. The format is cell-based. The conditions noted are these: Table 8; % GLP-1R activity relative to GLP-1 / % GlucR activity relative to glucagon. On the procedure: Cells were re-suspended in assay buffer at a batch-dependent optimized concentration (typically hGLP-1R cells at 1×10^5 cells/mL, hGCGR cells at 2×10^5 cells/mL).
Cells were added to the assay plate using a multidrop dispenser and incubated at room temperature for 30 minutes before measuring the cAMP level using a cAMP dynamic 2 homogeneous time resolved Fluorescence (HTRF) kit (Cisbio Bioassays #62AM4PEJ) following the two-step protocol as per manufacturer's recommendations. In brief, anti-cAMP cryptate (donor fluorophore) and cAMP-d2 (acceptor fluorophore) were made up separately by diluting each 1 in 20 in conjugate and lysis buffer provided in the kit. Anti-cAMP cryptate was added to all wells of the assay plate, followed by cAMP-d2 added to all wells except non-specific binding (NSB) wells (to which conjugate and lysis buffer was added).
Data was transformed to % Delta F as described in the manufacturer's guidelines and analyzed by 4-parameter logistic fit to determine EC50 values.

With `CC[C@H](C)[C@H](NC(=O)[C@H](Cc1c[nH]c2ccccc12)NC(=O)[C@H](CCCCNC(=O)COCCOCCNC(=O)COCCOCCNC(=O)CC[C@H](NC(=O)CCCCCCCCCCCCCCCCC(=O)O)C(=O)O)NC(=O)[C@@H](NC(=O)[C@H](Cc1ccccc1)NC(=O)[C@H](CC(=O)O)NC(=O)[C@H](CCC(N)=O)NC(=O)[C@H](C)NC(=O)[C@H](C)NC(=O)[C@H](CCC(N)=O)NC(=O)[C@H](CO)NC(=O)[C@H](CC(=O)O)NC(=O)[C@H](CC(C)C)NC(=O)[C@](C)(Cc1ccccc1)NC(=O)[C@H](CCCCN)NC(=O)[C@H](CO)NC(=O)[C@@H](NC(=O)[C@H](CC(=O)O)NC(=O)[C@H](CO)NC(=O)[C@@H](NC(=O)[C@H](Cc1ccccc1)NC(=O)[C@@H](NC(=O)CNC(=O)[C@H](Cc1c[nH]cn1)NC(=O)C(C)(C)NC(=O)[C@@H](N)Cc1c[nH]cn1)[C@@H](C)O)[C@@H](C)O)C(C)C)C(C)C)C(=O)N[C@@H](C)C(=O)N[C@@H](CC(N)=O)C(=O)N[C@H](C(N)=O)[C@@H](C)O` [Peptide 345], the “% Relative Potency Ratio” value was 0.1.
